Assays:
BT474 = test: Cell viability (CellTiter-Blue, 72 h), phytocannabinoids alone and in combination, BT474 breast cancer cells; assay type: cell-based; details: BT474, 10% FBS
Experimental: (§1) The cell lines tested in this Example were as follows. Breast cancer: MDA-MB-231; SK-BR3; and BT474. Liver cancer: HepG2.
(§2) The phytocannabinoids were tested alone and in various ratioed combinations in media containing final concentrations of 10% and 1% foetal bovine serum at 72 h for the breast and prostate cancer lines and 1% foetal bovine serum for the liver cancer line HepG2.
(§3) Each tumour cell line was maintained in vitro in RPMI 1640+10% heat inactivated FBS and 2 mM L-glutamine (growth media) at 37° C. in 5% CO2 and humidified conditions. The cells were harvested, washed, re-suspended into growth medium and counted. […]
(§4) The plates were incubated for 72 h at 37° C. in 5% humidified CO2. […] Fluorescence was measured using a Flex II Station plate reader (570 nm excitation wavelength, 600 nm emission wavelength, 590 nm cut-off) after 3 h. […]
(§5) The raw data values expressed in relative fluorescent units were normalised to the vehicle for each individual plate and any reduction in fluorescence indicated a decrease in viability.
(§6) The data were analysed in GraphPad PRISM using a non-linear sigmoidal plot with variable slope (asymmetric five point linear regression) and where possible an IC50 value for each single compound and combination was generated.

SKBR3 = test: Cell viability (CellTiter-Blue, 72 h), SKBR3 breast cancer cells; assay type: cell-based
Experimental: as §1, §2, §3, §4, §5, §6

## Herceptin: Herceptin (in the clinical formulation), positive control for the SKBR3 & BT474 cell lines [reference compound]
BT474
  IC50: 13 nM
SKBR3; SKBR3, 1% FBS
  IC50: > 1000 nM
SKBR3; SKBR3, 10% FBS
  IC50 values: NE at 1 μM
